Among the data in article PMC12440827 (Nature structural & molecular biology, 2025) are % of the population as ULK1C 2:1:1 complex and % of the population as ULK1C 2:2:2 complex values, retold here.

Amino acid sequences for entries named in this document (tags omitted). A change or cut given only in a name is not applied to a line headed by its entry.
UniProt O75143: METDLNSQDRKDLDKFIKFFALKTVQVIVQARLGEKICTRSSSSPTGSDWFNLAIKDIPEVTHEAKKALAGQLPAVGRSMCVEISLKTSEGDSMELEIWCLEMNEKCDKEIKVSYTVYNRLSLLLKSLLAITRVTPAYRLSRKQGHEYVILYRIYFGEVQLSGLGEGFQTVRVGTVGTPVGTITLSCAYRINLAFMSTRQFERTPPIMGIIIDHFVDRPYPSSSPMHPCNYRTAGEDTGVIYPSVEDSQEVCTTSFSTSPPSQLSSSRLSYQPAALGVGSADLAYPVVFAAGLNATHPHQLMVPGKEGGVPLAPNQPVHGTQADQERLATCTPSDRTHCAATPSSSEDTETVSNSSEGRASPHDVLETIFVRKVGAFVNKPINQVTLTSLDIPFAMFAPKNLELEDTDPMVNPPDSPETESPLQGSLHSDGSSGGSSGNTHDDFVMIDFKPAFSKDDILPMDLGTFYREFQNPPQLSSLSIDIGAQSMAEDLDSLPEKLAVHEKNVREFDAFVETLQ

Test [1] deals with FIP200n (FIP200 1-640) of the mass photometry samples (human) (UniProt Q8TDY2). The test can be described thus: mass photometry; measurement iv: FIP200n with MBP-ATG13(450-517)-ULKc; concentration of mixing and cross-linking not told; measured at 10 nM.
The target is the same in test [2]. Description: mass photometry; measurement ix: cross-linked at 1000 nM, without PI3KC3-C1; diluted to 10 nM for measurement.
Test [3] shares this target. Description: mass photometry; measurement x: cross-linked at 1000 nM with 500 nM PI3KC3-C1; diluted to 10 nM for measurement.
For test [4] the target is unchanged. Description: mass photometry; measurement v: cross-linked (glutaraldehyde) at 10 nM, without PI3KC3-C1; measured at 10 nM.
The target is the same in test [5]. The test can be described thus: mass photometry; measurement vi: cross-linked at 10 nM with 5 nM PI3KC3-C1; measured at 10 nM.
Test [6] has the same target. Description: mass photometry; measurement vii: cross-linked at 200 nM, without PI3KC3-C1; diluted to 10 nM for measurement.
The target is the same in test [7]. The test can be described thus: mass photometry; measurement viii: cross-linked at 200 nM with 100 nM PI3KC3-C1; diluted to 10 nM for measurement.

In test [1], “MBP-ATG13(450-517)-ULKc fusion (from UniProt O75143 450-517; O75385 836-1050)” returned a % of the population as ULK1C 2:1:1 complex of 20% and a % of the population as ULK1C 2:2:2 complex of 25%.

For the substance “MBP-ATG13c-ULK1c fusion (ATG13 363-517, ULK1 MIT) (from UniProt O75143 363-517; O75385 836-1050)”, the % of the population as ULK1C 2:1:1 complex in test [2] came to 25%; in test [3] it was 18%; in test [4] it was 33%; in test [5], 30%; in test [6] it was 35%; in test [7] it was 29%. The % of the population as ULK1C 2:2:2 complex in test [2] came to 33%; in test [3], 23%; in test [4], 4%; in test [5], 5%; in test [6], 17%; in test [7], 13%.
